Values quoted from earlier work as cited in patent EP1903052A2, “APJ receptor ligands and uses thereof” (Faust Pharmaceuticals SA, priority 2006, dated 2008).

Amino acid sequences for entries named in this document (tags omitted).
UniProt Q9JHG3, whole entry: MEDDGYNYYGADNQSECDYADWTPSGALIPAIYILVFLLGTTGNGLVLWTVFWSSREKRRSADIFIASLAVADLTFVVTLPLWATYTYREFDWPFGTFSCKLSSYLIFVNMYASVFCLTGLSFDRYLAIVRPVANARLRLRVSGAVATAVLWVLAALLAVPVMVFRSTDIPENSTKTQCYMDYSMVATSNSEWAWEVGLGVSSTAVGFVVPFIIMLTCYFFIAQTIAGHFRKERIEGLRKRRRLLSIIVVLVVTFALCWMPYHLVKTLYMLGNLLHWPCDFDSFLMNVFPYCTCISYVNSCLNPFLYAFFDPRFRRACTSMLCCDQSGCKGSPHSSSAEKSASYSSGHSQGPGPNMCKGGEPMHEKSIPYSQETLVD

Key:
rat apelin receptor-EGFP = rat apelin receptor-EGFP (Rattus norvegicus, UniProt Q9JHG3); settings: cited from earlier work
rat APJ receptor = rat APJ receptor (Rattus norvegicus, UniProt Q9JHG3); settings: cited from earlier work
[1] = 100 nM, Reaux et al., J. Neurochem., 2001

## CSCC[C@H](NC(=O)[C@@H]1CCCN1C(=O)CNC(=O)[C@H](CCCCN)NC(=O)[C@H](Cc1cnc[nH]1)NC(=O)[C@H](CO)NC(=O)[C@H](CC(C)C)NC(=O)[C@H](CCCNC(=N)N)NC(=O)[C@@H]1CCCN1C(=O)[C@H](CCCNC(=N)N)NC(=O)[C@H](CCC(N)=O)NC(=O)[C@H](CCCNC(=N)N)NC(=O)[C@H](CCCNC(=N)N)NC(=O)[C@H](Cc1ccccc1)NC(=O)[C@@H](N)CCCCN)C(=O)N1CCC[C@H]1C(=O)N[C@@H](Cc1ccccc1)C(=O)O
Rat apelin receptor-EGFP; [1]
  internalization of the rat apelin receptor-EGFP: intense internalization
Rat apelin receptor-EGFP; at concentrations of 10^-8 M, Reaux et al. 2001, El Messari et al. 2004
  internalisation of the APJ receptor: massive internalisation
Rat APJ receptor; [1]
  forskolin-stimulated cAMP production: inhibit
Rat APJ receptor; inhibition of cAMP production induced by forskolin, CHO cell line expressing the murine APJ receptor, De Mota et al., Neuroendocrinology, 2000
  IC50: 0.13 nM
